In the assay the target is Jnk3 (Homo sapiens, UniProt P53779). Conditions: BIRB-TOM tracer at 2 uM, cell-free, FIG. 19.

Chains of the proteins cited; added tags and fusions are not shown.
UniProt P53779, whole entry, species assumed: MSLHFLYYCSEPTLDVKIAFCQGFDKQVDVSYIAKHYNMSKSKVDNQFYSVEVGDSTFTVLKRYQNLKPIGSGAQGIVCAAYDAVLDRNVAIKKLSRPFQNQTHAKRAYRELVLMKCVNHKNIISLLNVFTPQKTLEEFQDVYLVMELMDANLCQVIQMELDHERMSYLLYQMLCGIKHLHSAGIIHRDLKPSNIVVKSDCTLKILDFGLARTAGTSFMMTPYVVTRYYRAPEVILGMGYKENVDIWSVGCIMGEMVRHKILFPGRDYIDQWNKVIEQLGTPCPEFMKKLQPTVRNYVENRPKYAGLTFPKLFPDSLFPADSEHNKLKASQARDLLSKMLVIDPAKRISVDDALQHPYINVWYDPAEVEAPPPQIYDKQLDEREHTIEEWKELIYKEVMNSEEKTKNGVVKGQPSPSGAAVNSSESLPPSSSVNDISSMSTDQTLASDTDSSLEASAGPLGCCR

For the molecule `Cc1ccc(-n2nc(C(C)(C)C)cc2NC(=O)Nc2ccc(OCCN3CCOCC3)c3ccccc23)cc1` [BIRB-796], the “affinity by competitive displacement” value is given as “lower affinity”.

These data come from US10024862B2, “Recognition of cellular target binding by a bioactive agent using intracellular bioluminescence resonance energy transfer” (Promega Corporation, priority 2012, dated 2018).
